Experiments:
[1] = biological target: Orexin receptor type 2 (Homo sapiens, UniProt O43614); test: Radioligand Binding Assay
[2] = biological target: Orexin/Hypocretin receptor type 1 (Homo sapiens, UniProt O43613); test: Radioligand Binding Assay

Chains of the proteins cited; added tags and fusions are not shown.
UniProt O43614, whole entry, looked up: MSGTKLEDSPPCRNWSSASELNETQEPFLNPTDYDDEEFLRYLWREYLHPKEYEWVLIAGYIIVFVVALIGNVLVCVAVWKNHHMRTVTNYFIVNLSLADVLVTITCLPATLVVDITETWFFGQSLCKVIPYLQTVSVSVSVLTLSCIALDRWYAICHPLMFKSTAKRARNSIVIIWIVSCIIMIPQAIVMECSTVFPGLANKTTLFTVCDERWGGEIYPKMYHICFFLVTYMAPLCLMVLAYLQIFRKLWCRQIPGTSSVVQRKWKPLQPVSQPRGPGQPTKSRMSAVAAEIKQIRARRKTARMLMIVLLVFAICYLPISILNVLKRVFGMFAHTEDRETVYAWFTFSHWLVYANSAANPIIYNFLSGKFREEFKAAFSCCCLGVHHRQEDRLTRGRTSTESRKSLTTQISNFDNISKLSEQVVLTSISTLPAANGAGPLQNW
UniProt O43613, whole entry, looked up: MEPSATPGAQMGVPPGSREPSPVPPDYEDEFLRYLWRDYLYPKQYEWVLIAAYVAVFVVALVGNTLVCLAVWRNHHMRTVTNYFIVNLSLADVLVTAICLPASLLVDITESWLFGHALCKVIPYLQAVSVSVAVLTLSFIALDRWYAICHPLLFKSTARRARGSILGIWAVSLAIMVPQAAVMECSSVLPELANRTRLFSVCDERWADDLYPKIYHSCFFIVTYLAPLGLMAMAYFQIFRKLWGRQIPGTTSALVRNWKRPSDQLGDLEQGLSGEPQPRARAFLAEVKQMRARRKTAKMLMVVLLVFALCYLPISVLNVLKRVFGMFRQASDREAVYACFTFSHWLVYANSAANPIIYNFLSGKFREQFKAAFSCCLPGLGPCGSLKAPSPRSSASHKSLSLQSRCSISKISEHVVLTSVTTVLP

`Cc1ccc(-n2nccn2)c(C(=O)N2C3CCC2C(Nc2ccc(Br)cn2)C3)n1` (configuration not stated) showed a Ki [1] of 1100 nM and a Ki [2] of 26 nM.

— BindingDB's records for US9062078
